31 compounds from PubChem BioAssay AID568 (Sanford-Burnham Center for Chemical Genomics, 2006) can be followed below.

By UniProt entry, the sequences of proteins in these tests, tags left out.
UniProt P11142, whole entry: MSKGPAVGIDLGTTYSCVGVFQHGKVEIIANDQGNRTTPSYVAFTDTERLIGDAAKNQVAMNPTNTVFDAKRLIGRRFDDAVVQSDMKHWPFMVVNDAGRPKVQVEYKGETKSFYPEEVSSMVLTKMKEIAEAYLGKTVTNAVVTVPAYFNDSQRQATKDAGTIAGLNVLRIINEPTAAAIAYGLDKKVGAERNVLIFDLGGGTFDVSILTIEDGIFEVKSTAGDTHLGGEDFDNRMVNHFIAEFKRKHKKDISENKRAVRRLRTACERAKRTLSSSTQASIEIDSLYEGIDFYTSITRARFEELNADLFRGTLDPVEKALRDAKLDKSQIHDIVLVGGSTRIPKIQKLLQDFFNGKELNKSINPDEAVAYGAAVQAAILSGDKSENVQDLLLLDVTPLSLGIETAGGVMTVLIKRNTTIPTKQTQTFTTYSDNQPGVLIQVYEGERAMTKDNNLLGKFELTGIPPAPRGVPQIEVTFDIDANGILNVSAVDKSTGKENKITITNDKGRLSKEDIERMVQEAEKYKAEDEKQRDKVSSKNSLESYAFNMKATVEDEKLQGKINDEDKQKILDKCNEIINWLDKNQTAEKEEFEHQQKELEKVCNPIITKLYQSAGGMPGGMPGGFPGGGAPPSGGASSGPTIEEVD

Only a part is listed here, and it is no random draw. Measured potencies and affinities stand elsewhere. Calls of active or inactive are those of the source. How the calls were made is not given here.

The target of the test is Heat shock cognate 71 kDa protein (Homo sapiens) (UniProt P11142). As to the kind of experiment: Hsc70 inhibitors, probe displacement, primary screen, biochemical, fluorescence polarization (AID 568). To be noted: mP, at 20 µM, active compounds read high. A general note: Fluorescence polarisation rises when a labelled molecule tumbles more slowly, as on binding a larger partner.
As for `CP(=O)(NC(=O)Nc1ccccc1)Oc1ccccc1` (stereo unspecified), the displacement was inactive: -3.5%.

Consider `CCOP(C)(=S)SCC(=O)NC(C)C(=O)O` (stereo unspecified), for which the displacement is inactive: 0.3%.

For the compound `CP(=O)(Nc1ccccn1)Oc1ccc(Cl)cc1` (stereo unspecified), the displacement is inactive: 1.7%.

As for `CP(=S)(Nn1cnnc1)Oc1ccccc1` (stereo unspecified), the displacement was inactive: -4.7%.

Consider `COc1ccccc1OP(C)(=O)Nc1ccc(C)cc1` (stereo unspecified), for which the displacement was inactive: 1%.

`Cc1ccc(NP(C)(=O)Oc2ccccc2)c(C)c1` (stereo unspecified): the displacement is inactive: -0.7%.

For the compound `COc1ccc(OP(C)(=O)Nc2cccc(F)c2)cc1` (stereo unspecified), the displacement is inactive: 2.6%.

Regarding `Cc1ccc(C)c(NP(C)(=O)Oc2ccccc2)c1` (stereo unspecified), the displacement was inactive: 7.2%.

Take `Cc1cc(C)cc(OP(C)(=O)Nc2ccccn2)c1` (stereo unspecified): the displacement was inactive: -0.5%.

Regarding `COc1ccccc1OP(C)(=O)Nc1c(C)cccc1C` (stereo unspecified), the displacement was inactive: -1.2%.

As to `Cc1nc2ccc3ccccc3c2s1.O=[N+]([O-])c1cc([N+](=O)[O-])c(O)c([N+](=O)[O-])c1`, the displacement is inactive: -4.2%.

As for `CCOP(C)(=S)SCC(=O)NC(C)(CC)C(=O)O` (stereo unspecified), the displacement is inactive: 1.8%.

`CP(=O)(Nc1ccc2c(c1)OCCO2)Oc1ccccc1` (stereo unspecified): the displacement was inactive: 4%.

For the compound `Cc1ccccc1NP(C)(=O)Nc1ccccc1C`, the displacement was inactive: 6.8%.

On to `CN(C)CCOC(=O)C(O)(c1ccccc1)C1CCCCC1` (stereo unspecified), for which the displacement was inactive: 3.6%.

For the compound `CCN(CC)CCCOC(=O)C(O)(c1ccccc1)C1CCCCC1` (stereo unspecified), the displacement was inactive: 0.1%.

Consider `CP(=O)(Nc1ccccc1)Oc1ccc(F)cc1` (stereo unspecified), for which the displacement was inactive: 6.4%.

On to `CP(=O)(Nc1ccccc1F)Oc1ccccc1` (stereo unspecified), for which the displacement is inactive: -0.6%.

Turning to `CN(C)CCOC(=O)C(O)(c1ccccc1)C1CCCC1` (stereo unspecified), the displacement is inactive: -1.8%.

Regarding `Cc1c(NP(C)(=O)Oc2ccc(C(C)C)cc2)c(=O)n(-c2ccccc2)n1C` (stereo unspecified), the displacement is inactive: 0.7%.

With `CP(=O)(Nc1ccccn1)Oc1ccccc1` (stereo unspecified), the displacement was inactive: 4.2%.

For the compound `COc1ccccc1OP(C)(=O)Nc1ccc(C)cc1C` (stereo unspecified), the displacement was inactive: -2.2%.

Regarding `CCc1ccc(OP(C)(=O)O)cc1`, the displacement is inactive: 0.7%.

Turning to `COc1ccccc1OP(C)(=O)Nc1ccc(C)c(C)c1` (stereo unspecified), the displacement was inactive: -1.6%.

As to `Cc1nc2ccc3ccccc3c2o1.O=[N+]([O-])c1cc([N+](=O)[O-])c(O)c([N+](=O)[O-])c1`, the displacement was inactive: 7.8%.

In the case of `CP(=O)(OC12CC3CC(CC(C3)C1)C2)OC12CC3CC(CC(C3)C1)C2`, the displacement is inactive: 5.5%.

As to `CCN(CC)CC(O)COC(=O)C(O)(c1ccccc1)C1CCCCC1` (stereo unspecified), the displacement is inactive: 3.6%.

As to `COc1ccccc1OP(C)(=O)Nc1c(C)n(C)n(-c2ccccc2)c1=O` (stereo unspecified), the displacement was inactive: 3.9%.

Turning to `CP(=O)(Oc1ccccc1)N1CCOC1=O` (stereo unspecified), the displacement is inactive: 2.5%.

`CC(C)(C)c1ccc(OP(C)(=O)O)cc1`: the displacement was inactive: 3.2%.

Consider `CP(=O)(Nc1ccc(Cl)cc1)Oc1ccc(F)cc1` (stereo unspecified), for which the displacement was inactive: 3.5%.
